In series [1] the test system is Human foreskin fibroblasts. The series can be described thus: Imaging of fibronectin matrix assembly as a function of carrier size and ligand density. The following applies: ligand-ANC in media instead of adsorbed. The format is cell-based. The procedure:
Matrix assembly was analyzed as a function of ligand carrier size and ligand density. Substrates with equal levels of ligand but differential presentation were adsorbed in 8-well Labtek chamber slides overnight at 4° C. Substrates were then washed generously with PBS and blocked with BSA for 1 hour at 37° C. Fibroblasts were serum-starved at least 12 hours prior to trypsinization and re-plated at a density of 35,000 cells per well in serum free media. Cells were then cultured for 24 hours at 37° C. After 24 hour incubation, media was removed and substrates were washed with DPBS with calcium and magnesium. Cells were fixed with 1% formaldehyde for 9 minutes and washed with DPBS with calcium and magnesium. Cells were permeabilized with Triton-X 100 for 15 minutes and washed with DPBS with calcium and magnesium and blocked with 1% BSA for 1 hour at 37° C. Substrates were washed and primary antibody IST-4 (Sigma) for fibronectin that binds to the 5th type III repeat of human plasma fibronectin was incubated at a 1:100 dilution in PBS overnight at 4° C. Substrates were washed and incubated with FITC-conjugated donkey anti-mouse IgG (Jackson Immunolabs, West Grove, Pa.) at a 1:200 dilution for 30 minutes at room temperature, and were then washed and incubated with Texas-red phalloidin (Molecular Probes, Eugene, Oreg.) for 20 minutes at room temperature. […]

In series [2] the test system is Human foreskin fibroblasts, HFF. Put plainly: Cell adhesion assay (hexosaminidase). The series is classed as cell-based. The following applies: 60 minutes. The procedure: To quantify cell attachment to FNf-ANPs, 96-well non-tissue culture dishes were coated overnight at 4° C. with FNf-ANPs or FNf as described above. Wells were washed with PBS and blocked with 1% bovine serum albumin. After washing with PBS, HFF were plated at 2.5×10^4 cells/well and incubated for 60 minutes at 37° C. Medium and unbound cells were removed by inversion of the plate and two washes with PBS. Quantification of the number of adherent cells was performed using the hexosaminidase assay. Briefly, substrate composed of a 1:1 mixture of 0.5% Triton-X 100 and 7.5 mM β-nitrophenyl N-acetyl β-D glucosaminide in 0.1 M citrate buffer, pH 5.0, was added to each well and incubated for 90 minutes at 37° C. The reaction was terminated with 50 mM glycine/5 mM EDTA, pH 10.4 and the absorbance read at 405 nm on a multiwell plate reader.
(§1) To analyze cellular morphology, shape factors were quantified for all conditions. […] Selected studies were also conducted to examine early cell attachment behavior on surfaces adsorbed with each of the four FNf-ANP preparations described above or corresponding FNf alone, such that levels FNf display were equivalent between each modality of ligand display as determined by ELISA.

Series [3] has as its system ligand-occupied β1 integrins. The series can be described thus: Localization of ligand-occupied β1 integrin (clone 12G10 staining). The format is cell-based, human. The note with it: HFF. The procedure: (§2) Labtek chamber slides (Nalge Nunc International, Rochester, N.Y.) were coated overnight at 4° C. with FNf-ANPs or FNf as described above to attain equivalent display with FNf. […] Fibroblasts were seeded at densities and incubated for times described in each figure legend. After incubation at 37° C., samples were fixed with either 20 or 3.7% formaldehyde for 9 minutes or 15 minutes, respectively, and permeabilized with 0.5% Triton-X 100 for 20 minutes; only samples stained with anti-fibronectin antibody (clone IST-4) or anti-integrin β1 were fixed with 2% formaldehyde. Samples were then incubated with primary antibodies in blocking buffer (3% BSA) for 1 hour, washed, and further incubated with the appropriate secondary antibodies for 1 hour. Where indicated, cells were also incubated with TexasRed X- or fluoroscein-conjugated phalloidin to visualize F-actin. Cells were examined using a Leica SP/2 Confocal Laser Scanning Microscope.
The α5β1 integrin transmits cytoskeleton-generated tension to the extracellular fibronectin molecules via a specific local pattern of integrin movement. Pankov et al, J Cell Biol 148 (5): 1075 (2000). To determine whether presentation of FNf via ANPs promotes fibronectin matrix assembly by regulating the dynamics of β1 integrins, a time course of the localization of ligand-occupied β1 on FNf and FNf-ANP was performed. A cation and ligand-induced binding site (CLIBS) class of monoclonal antibody (clone 12G10), that recognizes an extracellular epitope expressed after ligand occupation of human β1 integrin receptors was employed.
FIG. 5a illustrates the results of an experiment wherein HFF (2.7×10^4 cells/cm^2) were seeded on the highest concentration [1.70 μg/cm^2] of FNf or FNf-ANP and fixed after 2 and S hours. Cells were stained with a monoclonal anti-active 131 antibody (clone 12G 10), followed by Alexa Fluor 488-conjugated anti-mouse IgG. F-actin was visualized by staining with Texas Red-X phalloidin. Panels B, D, F, H, are overlay images of 131 and actin staining. Arrows denote translocating β1. Bar, 20 μm. […]

Series [4] deals with Human foreskin fibroblasts, HFF. Put plainly: Cell morphology by F-actin staining and shape factor. The format is cell-based. The procedure:
as §2
To characterize the effect of nanoparticle display of FNf on early cellular responses, adhesion and morphology were examined. […] These trends in cell morphogenesis support the low cell attachment achieved with FNf compared to that attained with FNf-ANP. Next, we extended the culture time of human foreskin fibroblasts (“HFF”) on FNf-ANPs or equivalent FNf, and evaluated cellular morphology. HFF (2.3×10^4 cells/cm^2) were cultured for 5 hours on surfaces prepared as described in Materials and Methods, then stained for F-actin with Texas Red X-conjugated phalloidin. Bar, 40 μm.
as §1

Series [5] has the same test system. The series can be described thus: Fibronectin matrix assembly by HFF, immunofluorescence and image analysis. The series is classed as cell-based. The procedure:
as §2
In order to discern HFF-derived fibronectin from the FNf conjugated to ANPs or adsorbed to the substrate, an anti-fibronectin monoclonal antibody whose epitope lies outside of the 9th-10th type III repeat of the FNf was used to stain for fibronectin in these assays; the epitope for the monoclonal anti-fibronectin antibody is located in the 5th type III repeat of human fibronectin.
HFF were seeded on FNf-ANPs or FNf pre-coated surfaces prepared as described above. Two hours after seeding, ceils were treated with Y27632 (3 μM). Cells were cultured overnight at 37° C. before being processed for immunofluorescenee. For soluble FNf-ANP studies, HFF were seeded on non-coated Labtek chamber slides for 2 hours before being incubated with FNf-ANPs or FNf at concentrations used for surface adsorption as described above. Cells were cultured overnight at 37° C. in the continued presence of FNf-ANPs or FNf and processed for immunofluorescence.
Two-dimensional image analysis was performed on cell specimens double-stained with Texas Red-phalloidin (red for actin) and FITC-labeled secondary antibody against cell-secreted fibronectin antibody (green for fibronectin) using Image Pro Plus, version 5.0 (Media Cybemctics, Silver Spring, Md.). To examine fibronectin fibril coverage found only in the extracellular matrix, a semi-automated method was developed to identify fibrils only found in the extracellular matrix and assess assembly. Briefly, the images were filtered, segmented and analyzed to determine the extent of fibronectin assembled in the ECM in terms of the area occupied by fibronectin fibrils. Within each actin-stained image, the upper and lower, boundaries of the red fluorescence intensity were prescribed with a view to minimize the selection of all the pixels in the field corresponding to the actin stain (red) and to maximize the pixels that corresponded to the unlabeled ECM. The fibronectin stained image (green) was then used to prescribe the upper and lower boundaries of the green fluorescence intensity so that the selection of the green corresponding to fibronectin fibrils was maximized. The intensity range values from the red and green image were then applied to discriminate the fibronectin label within the ECM space using the overlay image of actin and fibronectin staining. By simultaneously applying the obtained values for the green and red fluorescent ranges to the overlay image, only the colocalized pixels that corresponded to both fibronectin and ECM space were identified, thus excluding intracellular fibronectin. Once these objects were selected and outlined, the area of these objects was determined by Image Pro and converted to squared micrometer units based on the objective and zoom factor used during image acquisition. This process was validated through effective comparison of the extent of matrix assembly obtained via semi-automated analysis to that obtained via manual thresholding.
A major function of fibroblasts is to assemble fibronectin into matrix fibrils. […]

Series [6] has the same test system. The series can be described thus: Cell-mediated aggregation/mobilization of Texas Red-labeled FNf-ANP. The format is cell-based. The following applies: 24 hours, Texas Red-labeled FNf-ANP 1.70 μg/cm^2. The procedure:
Texas Red-labeled FNf-ANPs: Texas Red fluorophore (480 μg) was added to the albumin solution (30 ml reaction volume) at the final stirring step (37° C.), which is when ANPs begins to form, to incorporate Texas Red into the ANP. Non-encapsulated Texas Red was removed by dialysis. FNf were conjugated to Texas Red-labeled FNf-ANPs as described above.
In an experiment illustrated by FIG. 5c HFF were seeded on Texas Red-labeled FNf-ANP [1.70 μg/cm^2] and after 24 hours, fixed and stained for F-actin (panel B and E) with fluorescein-phalloidin. Panels A and D depict Texas Red FNf-ANP, and panels C and F are overlay images of labeled FNf-ANP and actin staining. Bar, 40

For the substance “FNf-ANP: fibronectin fragment (GST fusion, type III repeats 9-10) covalently conjugated to the surface of 100 nm albumin nanoparticles”, the “matrix assembly with ligand-ANC supplemented to the media” value in series [1] is reported as “matrix assembly was not evident”. Further, in series [2] (all concentrations other than the lowest), the “number of cells attached relative to equivalent surface-adsorbed FNf” value is listed as “marked increase in the number of cells attached”. For the same substance, the cell attachment entry in series [2] (lowest amount of ligand tested) is “no detectable attachment”. The “concentration of ligand-occupied β1 integrins versus FNf alone” value in series [3] (5 hours of culture) was “remained higher”. In addition, in series [3] (plasma-treated surface), the “β1 organization after oxygen plasma pre-treatment of surface” value was “loss of linear organization of β1 along actin filaments”. Further, the “ligand-occupied β1 in focal contacts versus equivalent adsorbed FNf” value in series [3] (two hours after plating, 1.70 μg/cm^2) was “more enriched”. The “cell spreading (morphology)” value in series [4] (45 minutes post seeding) was “well spread”. Also, the cell morphology entry in series [4] (5 hours of culture, F-actin staining) is given as “stellate shape with long, slender projections”. The “shape factor, (perimeter)^2/(4π(area))” value in series [4] (5 hours, about 25 cells per condition, all FNf densities) is on record as 6-10. In series [5] (HFF on bare coverglass, ligand added to media, overnight), the “deposition of fibronectin into the ECM when presented via the culture medium” value was “not sufficient”. In addition, the “assembly of fibronectin into matrix fibrils, FNf-ANP versus adsorbed FNf” value in series [5] (HFF, 24 hours, highest densities of FNf) is reported as “dramatic increase”. The “increase in surface area occupied by fibronectin matrix fibrils versus equivalent density of surface adsorbed FNf” value in series [5] (HFF, 24 hours, image analysis of extracellular fibronectin, p=0.004) amounted to 42%. Besides, the “matrix deposition of HFF-derived fibronectin, FNf-ANP versus adsorbed FNf” value in series [5] (HFF, 24 hours, lowest levels of FNf ligand) is reported as “no obvious difference”. The “extracellular fibrils of fibronectin, media presentation compared to substrate presentation” value in series [5] (HFF, image analysis) was “significantly fewer”. Moreover, in series [5] (oxygen plasma, image analysis, p=0.0002), the “fibronectin matrix fibrils in the extracellular space, immobilized versus non-immobilized surfaces” value is given as “significantly decreased levels”. Besides, the “fibronectin matrix assembly, immobilized versus non-immobilized surfaces” value in series [5] (surface pre-treated with oxygen plasma, 1.70 μg/cm^2) is listed as “inhibited fibronectin matrix assembly”. Moreover, the “FNf-ANP aggregation after plasma treatment of surfaces” value in series [6] was “decreased the overall amount of FNf-ANP aggregation”.
